This passage reports % of cells in the TTR-binding gate results from patent US11844813.

This assay concerns the target RBP4 displayed on the surface of yeast (Aga2p-HA-tag-(Gly4Ser)3 Linker-RBP4-c-myc Tag) (human) (UniProt P32781). The assay can be described thus: flow cytometry dot plot: yeast displaying RBP4 stained with 100 nM StrepII-tagged TTR (biotinylated anti-Strep II antibody, streptavidin-PE) against RBP4 expression (anti-HA); the negative control without TTR shows 0.1% in the same gate. In general terms: Flow cytometry measures light scatter and fluorescence of single cells or particles in a stream.

As for “Human StrepII-tagged TTR (from UniProt P02766 21-147)”, the % of cells in the TTR-binding gate was 16.3%.
